The values below are quoted from earlier work in article PMC7606641 (Biochemical pharmacology, 2020).

For the data set the following is noted: hormones crossing the BBB; cited from earlier work.

In the case of insulin, the “Percentage of injected dose entering the brain (%Inj/g)” value is listed as 0.046%.
